Earlier results as cited in patent publication US20080145918A1, “Method for the Detoxification of a Hazardous Compound” (published 2008).

System: guppy
Details: comparative example (reference 1); cited from earlier work

## C[As](C)(=O)O
  rate of methylated arsenic in the total arsenic: 1.2%
